Columns and labels:
Assay type in all cases: cell membranes
[1] = biological target: T1, Adenosine receptor A2b (Homo sapiens) (UniProt P29275); assay: Displacement of [3H]-DPCPX from human A2BAR extracted from HEK cell membrane at 10 uM incubated for 30 mins by beta scintillation counter analysis relative to control
T1 sequence (whole entry): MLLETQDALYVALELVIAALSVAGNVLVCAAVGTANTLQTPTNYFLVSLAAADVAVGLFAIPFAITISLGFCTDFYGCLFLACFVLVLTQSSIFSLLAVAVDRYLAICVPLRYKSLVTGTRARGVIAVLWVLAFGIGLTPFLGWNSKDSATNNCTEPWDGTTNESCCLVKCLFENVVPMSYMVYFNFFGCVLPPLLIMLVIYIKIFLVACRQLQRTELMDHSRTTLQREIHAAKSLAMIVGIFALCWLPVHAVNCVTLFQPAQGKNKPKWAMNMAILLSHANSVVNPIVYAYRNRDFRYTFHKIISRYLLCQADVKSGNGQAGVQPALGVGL

The chains behind the UniProt entries cited, without tags or fusion partners.
UniProt P30542, whole entry: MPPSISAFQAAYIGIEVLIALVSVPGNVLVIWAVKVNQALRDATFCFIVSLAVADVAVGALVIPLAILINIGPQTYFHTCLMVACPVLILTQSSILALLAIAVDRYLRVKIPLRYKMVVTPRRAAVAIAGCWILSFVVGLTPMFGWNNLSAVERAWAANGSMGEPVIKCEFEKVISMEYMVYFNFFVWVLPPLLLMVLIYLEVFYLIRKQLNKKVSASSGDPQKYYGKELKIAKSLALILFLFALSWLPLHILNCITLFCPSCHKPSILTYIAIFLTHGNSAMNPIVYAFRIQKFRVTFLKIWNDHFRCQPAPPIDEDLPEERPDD
UniProt P0DMS8, whole entry: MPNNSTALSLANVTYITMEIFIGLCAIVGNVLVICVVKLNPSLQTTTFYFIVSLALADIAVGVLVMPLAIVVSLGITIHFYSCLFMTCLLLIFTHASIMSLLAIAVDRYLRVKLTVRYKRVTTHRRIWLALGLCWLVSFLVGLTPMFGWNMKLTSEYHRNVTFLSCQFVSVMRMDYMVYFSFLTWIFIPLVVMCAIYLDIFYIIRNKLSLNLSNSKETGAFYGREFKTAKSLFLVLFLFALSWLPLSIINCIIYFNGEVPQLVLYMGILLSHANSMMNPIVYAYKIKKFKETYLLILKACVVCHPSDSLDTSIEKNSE

[2] = biological target: Adenosine receptor A1 (Homo sapiens) (UniProt P30542); assay: Displacement of [3H]-DPCPX from human A1AR extracted from CHO cell membrane at 10 uM incubated for 60 mins by beta scintillation counter analysis relative to control
[3] = biological target: Adenosine receptor A3 (Homo sapiens) (UniProt P0DMS8); assay: Displacement of [3H]-NECA from human A3AR extracted from human HeLa cell membrane at 10 uM incubated for 180 mins by beta scintillation counter analysis relative to control
[4] = biological target: Adenosine receptor A2a (Homo sapiens) (UniProt P29274); assay: Displacement of [3H]-ZM241385 from human A2AAR extracted from human HeLa cell membrane at 10 uM incubated for 30 mins by beta scintillation counter analysis relative to control

Activity [1] | Activity [2] | Activity [3] | Activity [4] | SMILES
17% | 49% | 91% |  | CCCCC#Cc1nc(N)c2ncn([C@@H]3C=C[C@@H](O)[C@H]3O)c2n1
3% | 26% |  |  | CCCCC#Cc1nc(N)c2ncn([C@@H]3CC[C@@H](O)[C@H]3O)c2n1
23% | 84% |  |  | CCCCC#Cc1nc(N)c2nc(Br)n([C@H]3[C@H](O)[C@H](O)[C@@H]4C[C@@H]43)c2n1
11% | 38% | 83% | 62% | CCCCC#Cc1nc(N)c2nc(CCN)n([C@H]3[C@H](O)[C@H](O)[C@@H]4C[C@@H]43)c2n1
10% | 65% | 77% | 79% | CCCCC#Cc1nc(N)c2nc(-c3ccc(C#N)cc3)n([C@H]3[C@H](O)[C@H](O)[C@H]4C[C@H]43)c2n1
84% |  |  |  | CCCCC#Cc1nc(N)c2nc(-c3ccco3)n([C@H]3[C@H](O)[C@H](O)[C@@H]4C[C@@H]43)c2n1
7% | 18% | 77% | 56% | CCCCC#Cc1nc(N)c2ncn([C@]34C[C@H]3C[C@@H](O)[C@H]4O)c2n1
71% |  |  |  | CCCCC#Cc1nc(N)c2nc(-c3ccccc3)n([C@H]3[C@H](O)[C@H](O)[C@@H]4C[C@@H]43)c2n1
52% |  |  |  | CCCCC#Cc1nc(N)c2nc(-c3cccs3)n([C@H]3[C@H](O)[C@H](O)[C@@H]4C[C@@H]43)c2n1
10% | 15% | 70% | 19% | O[C@@H]1C[C@@H]2C[C@]2(n2cnc3c(NCc4cccc(Cl)c4)ncnc32)[C@@H]1O
3% | 18% | 13% | 12% | Nc1ncnc2c1ncn2[C@]12C[C@H]1C[C@@H](O)[C@H]2O
1% |  |  | 78% | CCCCC#Cc1nc(N)c2nc(-c3cc4sccc4s3)n([C@H]3[C@H](O)[C@H](O)[C@@H]4C[C@@H]43)c2n1
2% | 58% |  |  | CCCCC#Cc1ccc(-c2nc3c(N)nc(C#CCCCC)nc3n2[C@H]2[C@H](O)[C@H](O)[C@@H]3C[C@@H]32)cc1

Reference: ChEMBL document CHEMBL6096635, “Synthesis and biological evaluation of sugar-modified truncated carbanucleosides as A2A and A3 adenosine receptor ligands to explore conformational effect to the receptors” (Bioorg Med Chem, 2024)
